## Apparent affinities of Ab-14 variants for a coronavirus HR2 peptide

The measurements come from Li et al. 2023 (doi:10.1038/s41467-023-39022-2) through the FLAb antibody collection.

Binding partner: SARS-CoV-2 spike HR2 peptide, sequence PDVDLGDISGINAS.

Parent scFv Ab-14: VH joined to VL by a (GGGGS)3 linker. Changes lie in the light chain CDRs alone.
VH: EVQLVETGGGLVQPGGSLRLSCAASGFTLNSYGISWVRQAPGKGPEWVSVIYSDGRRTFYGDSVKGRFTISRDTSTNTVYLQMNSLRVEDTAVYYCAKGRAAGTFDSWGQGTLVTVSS
VL: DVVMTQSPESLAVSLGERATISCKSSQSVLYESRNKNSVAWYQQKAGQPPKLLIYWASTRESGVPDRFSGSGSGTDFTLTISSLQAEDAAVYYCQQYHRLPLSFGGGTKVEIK

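The starting antibody came from a phage panning campaign against this peptide. Designed CDR sequences, proposed from the first random library and measured here. Several design methods are mixed in this list. The assay is AlphaSeq: two haploid yeast populations carry antibody and antigen on their surface. After mating in shaken culture at 30 °C for 16 h, diploids were selected and their barcode pairs sequenced. The ratio of observed to expected reads was calibrated, replicate by replicate, on BCL2-family standards whose Kd was known from biolayer interferometry. There are six technical replicates.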

Each variant is given by its three light chain CDRs, as the data file delimits them; those of the parent are KSSQSVLYESRNKNSVA, WASTRES, QQYHRLPLS.
Numbers give log10(Kd / nM), so 0 is 1 nM and 3 is 1 µM. Smaller is tighter.
Replicates are averaged; those with no signal do not enter the mean.
"no signal" marks a missing value. The strain was present, yet no cells mated with the target were sequenced in any replicate, which points to weak or no binding.
Entries are sorted by rising average, undetected variants last.
As a blank, each scFv also met three strains without target: over all light chain designs, 4% of these pairings were detected, typically at 2.64 and seldom below 1.59. For each scFv, signals with the empty controls are counted beside the result.
The range of this assay differs from that of the first round, and the authors advise against merging the two.
The authors' rule: three or more of the six replicates give a measured affinity, fewer mean a poor binder.
The parent sequence was in this pool as ten entries: three were never detected, three once, and four in most replicates, with averages from 0.34 to 2.37.

CDR-L1 | CDR-L2 | CDR-L3 | log10 Kd (nM), mean | seen in | control signals
KLPQSVLYESRNKNSVA | DASQRES | QQYHRLPLS | -0.52 | 6/6 | 0/18
KSSQSWLYESRNKNSVA | GASTREI | QQYHRLPLS | -0.51 | 6/6 | 0/18
KLSQSWLYEERNKNNVA | SASTREW | QQYHRLPLS | -0.45 | 6/6 | 1/18
KMSQSELYESRNKNSVA | DASQRES | QQYHRLPLS | -0.37 | 6/6 | 2/18
KVSQSVLYESRNKNSVA | NASTRES | QQYHRLPLE | -0.36 | 6/6 | 1/18
KLSQSFLYEERNKNSVA | NASQRES | QQYHRLPLS | -0.25 | 6/6 | 1/18
KLSQSVLYEDRNKNSVA | SASTRSS | QQYHRLPLS | -0.23 | 6/6 | 1/18
QVSQSVLYESRNKNSVA | NASTRES | QQYHRLPLS | -0.21 | 6/6 | 2/18
KLSQSQLYESRNKNAVA | QASTRES | QQYHRLPLS | -0.17 | 6/6 | 2/18
KSPQSQEYESRNKNSVA | HASTRED | QQYHRLPLS | -0.16 | 6/6 | 1/18
KVSQSELYESRNKNSVA | EASTRES | QQYHRLPLS | -0.15 | 6/6 | 2/18
KLSQSMGYESRNKNSVA | EASTRES | QQYHRLPLS | -0.13 | 6/6 | 0/18
KISQSVLYESPNKNSVA | QASTRES | QQYHRLPLS | -0.10 | 6/6 | 0/18
KLHMSTGYESRNKDSIA | DNSTRGR | QQYHRLPLS | -0.06 | 5/6 | 0/18
KHSQSVLYEWRNKNSVA | DASTRES | QQYHRLPLS | -0.06 | 6/6 | 1/18
KSSQSELYESRNKNSVA | NASYRES | QQYHRLPLS | -0.04 | 6/6 | 3/18
KLSQSWEYLSRNSNAVA | NASQREQ | QQYHRLPLS | -0.03 | 6/6 | 2/18
KVSQMVPYEERNKNNVA | NASTRMS | QQYHRLPLS | -0.02 | 6/6 | 1/18
LWSQSELLESRNHNSVA | DASTRMD | QQYHRLPLS | 0.01 | 6/6 | 2/18
KLSMSVQYEARMKNSVA | EASTRES | QQYHRLPLS | 0.14 | 6/6 | 0/18
KLSSSWLYESRNKNSVA | NASQRES | QQYHRLPLS | 0.18 | 6/6 | 0/18
KISQSVLYESRLKNSVA | HASTRES | QQYHRLPLS | 0.26 | 6/6 | 2/18
KSSESVLYESGNKNSVA | HASTRED | QQYHRLPLS | 0.26 | 6/6 | 0/18
KMEQGVLYESRNKNSVA | QASVRES | QQYHRLPLS | 0.34 | 6/6 | 2/18
KSSQSVLYESRNKNSVA | WGSTRES | QDYHRLPLS | 0.36 | 6/6 | 0/18
KFSQWVLYESRTKNSVA | NASTREQ | QQYHRLPLS | 0.38 | 6/6 | 0/18
IISQVDAYLTRNKNSIA | DQSTRGS | QQYDRLPLS | 0.39 | 6/6 | 1/18
KIGSGTNGEKFESNSVA | QTSTREE | QQYHRLPLS | 0.41 | 6/6 | 0/18
TIGQTLMSGVRNRSNVA | EVSERLN | QQYDRLPLV | 0.44 | 6/6 | 0/18
KSSCSVDYEDRNSNSVA | NASTREW | QQYHRLPLS | 0.52 | 6/6 | 2/18
KVSQSVLYESRNKNSVA | NASQRMS | QQYHRLPLS | 0.53 | 6/6 | 0/18

Continued, with the values leading:

log10 Kd (nM), mean | seen in | control signals | CDR-L1 | CDR-L2 | CDR-L3
0.54 | 6/6 | 1/18 | QLAVDRLQEYKMGDAIA | GKTTRED | QQYARLPLS
0.54 | 6/6 | 1/18 | MISDLTYYGLRNVNSVA | DLSTRGN | QQYDRLPLS
0.57 | 6/6 | 0/18 | HIDQYTSYENGENRAIA | DVSIKDY | QQYARLPLL
0.58 | 6/6 | 0/18 | HSSPSVYMESRNKNSVA | NASTRES | QQYHRLPLS
0.58 | 6/6 | 1/18 | KLPASTMQESVSKNSVA | ELSTRGS | QQYHRLPLS
0.59 | 6/6 | 0/18 | KFMGSDEYQMQEQGNVA | QTEQKCN | QQYFRLPLT
0.62 | 6/6 | 0/18 | KLMQSMGYEQRNFNSVA | QASQRSS | QQYHRLPLS
0.79 | 6/6 | 2/18 | KMQQSELYESRNKNSVA | NASQRES | QQYHRLPLS
0.85 | 6/6 | 0/18 | KISYMGEFFSTNHSAIA | QASTREQ | QQYHRLPLS
0.85 | 6/6 | 1/18 | KLQQSWPYESRNKNSVA | NASQRES | QQYHRLPLS
0.94 | 6/6 | 2/18 | TISQMFLGMSRNRNSVA | QASTRCS | QSYDRLPLS
1.00 | 6/6 | 0/18 | KFSQSWLYESRVKNNVA | NASQRES | QCYHRLPLS
1.10 | 6/6 | 1/18 | KSSQSVLYESRNKNNIA | WASTRES | QQYHRLPLS
1.25 | 6/6 | 0/18 | TISQMMQLFSQTINNVA | EVSTRLN | QQYDRLPLA
1.41 | 6/6 | 2/18 | KSSMSVLYEERNKNSVA | WASTREE | QQYYRLPLS
1.47 | 6/6 | 0/18 | KFMMSGEYQMHEQNNIA | QGEIKFK | QQYFRLPIT
1.69 | 5/6 | 0/18 | KLTTTMRFEQKKKNNIA | EVTTRTK | QQYNRLPLA
1.70 | 6/6 | 0/18 | KQSQSVPYESRNENSVA | WASTRES | QQYHRLPLS
1.82 | 6/6 | 0/18 | KISYMGEHFSSNHSAIA | QASTREQ | QQYHRLPIS
1.99 | 5/6 | 0/18 | KIGHGLTTESRNRNSVA | QTETRVP | QHYHRLPLS
2.25 | 1/6 | 1/18 | SLAESVHMESRNKNSVA | DNSTRES | QHYHRLPLS
2.33 | 4/6 | 0/18 | KLSSHYFESYGERQAVA | DNEATMN | QQYHYLPLS
2.35 | 3/6 | 0/18 | RIYIQSDYYMENRSAIA | EMSLKAM | QQYFKLPLA
2.35 | 4/6 | 1/18 | KSSQSVLYESRNKNSVA | WASTRES | QQYHTLPLS
2.56 | 3/6 | 0/18 | KSSQSVTYESFNKNSVA | WASTRES | QQYHRLPLS
no signal | 0/6 | 0/18 | KGSQSVLPESRNKNSVA | MASTREF | QQYHFLPLS
no signal | 0/6 | 0/18 | KSSQSVLYEDRYKSSVA | WASTRES | QQSHRLPLS
no signal | 0/6 | 2/18 | KSSQSVLYESRNKNSVA | WASTRVF | FQYHRLPLS
no signal | 0/6 | 0/18 | KSGQSVLYESRNKNSVA | WASTRES | QAYHRLPLS
no signal | 0/6 | 1/18 | KSSQSVLWESRNKNSVA | TASTRER | QQYHRLPLS
no signal | 0/6 | 0/18 | IVSQLMLVGMHAKNSIA | EASSRLN | QQYDRLPLI

From the list, the first 5 with no signal in any replicate:

CDR-L1	CDR-L2	CDR-L3	log10 Kd (nM), mean	seen in	control signals
KGSQSVLPESRNKNSVA	MASTREF	QQYHFLPLS	no signal	0/6	0/18
KSSQSVLYEDRYKSSVA	WASTRES	QQSHRLPLS	no signal	0/6	0/18
KSSQSVLYESRNKNSVA	WASTRVF	FQYHRLPLS	no signal	0/6	2/18
KSGQSVLYESRNKNSVA	WASTRES	QAYHRLPLS	no signal	0/6	0/18
KSSQSVLWESRNKNSVA	TASTRER	QQYHRLPLS	no signal	0/6	1/18